Source: PubChem BioAssay (several laboratories)
Compounds with a hit are over-represented: about 0.45% of the library has one in this group of screens.
PglD inh: blocks C. jejuni PglD acetyltransferase activity | hit rate 0.098% among 360,000 | purified PglD enzyme, DTNB colorimetric CoA detection | inhibition, % at 12.5 µM; in the data active = inhibition above about 16%, passing the limit was not always enough
Yeast UUG start-1: modulators of yeast start codon fidelity, primary screen, whole organism, S. cerevisiae, single point, plate reader; S. cerevisiae UUG-firefly luciferase reporter, luminescence/redox ratio; activity score, % at 18.7 µM; actives 0.13% (n = 350,000);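 active means replicate mean at a twofold rise or more, about +100% in these data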;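 further: firefly luciferase made from a UUG start codon reports start codon fidelity; reporter light over untreated wells divided by growth signal over untreated wells; some hits fall short of that in this replicate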
DDE Tn7 FP inh: DD(E)-Tn7 binding inhibition, primary FP screen | inhibition, % at 8.3 µM | hit rate 0.13% among 370,000 | P02675 | FP displacement of FITC-Tn7 peptide from fibrin DD(E); 0% = median of compound wells per plate;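 active = inhibition above the mean of compounds falling within the control limits plus 3 SD of them, cut at about 14% in these data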;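 also: 0% = plate median of compound wells and 100% = 10 µM Aha-Tn7 peptide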
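Measure: % inhibition scaled between sample-field median and high-control FP; Test system: human fibrin DD(E); Quantity: 2 µM final DD(E) protein; Doses: one dose, 8.3 µM nominal; Schedule: compound with protein 10 min, then 3 h after probe, room temperature; Detection: fluorescence polarization; Medium: Tris buffer with calcium and detergent, pH 7.8.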
Tn6 DDE FP: inhibitors of Tn6 peptide binding to human fibrin DD(E); P02675; Fibrin DD(E) TRITC-Tn6 fluorescence polarization displacement; inhibition, % at 8.3 µM; hit rate 0.21% among 370,000;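 active = inhibition above a per-campaign cutoff: mean of compounds within control limits plus 3 SD, cut at about 15% in these data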;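 also: 0% = median of all compound wells on the plate and 100% = blocking peptide control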
Yeast UUG start-2: modulators of start codon recognition fidelity in yeast. shares compounds with Yeast UUG start-1. S. cerevisiae UUG-start firefly luciferase, luminescence, 4 h; 100% means double the DMSO signal. activation, % at 38 µM. 540 tested, under 10 active. AID 652061;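 active = signal increase whose fitted curve reaches an absolute level of 40 at a concentration under 10 µM; inactive = activity opposite to the expected increase, or the rest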
* = called active by the depositor; i = inactive; x = no result given.

# | molecule | PglD inh | Yeast UUG start-1 | DDE Tn7 FP inh
1 | CC(C)CC#Cc1ccc([C@H]2[C@@H](CO)N3CCCCN(S(=O)(=O)c4ccc(F)cc4)C[C@H]23)cc1 | 3 | 81* | x
2 | CC(C)CC#Cc1ccc([C@@H]2[C@@H](CO)N3CCCCN(S(=O)(=O)c4ccc(F)cc4)C[C@H]23)cc1 | 9 | 13 | x
3 | O=C(C[C@@H]1CC[C@H]2[C@@H](COC[C@@H](O)CN2CC2CCCCC2)O1)NCc1ccc(F)cc1 | -1 | 16 | x
4 | CCN(CC)CCNC(=O)C(C)c1nn(CC)c(=O)c2ccccc12 (stereo not given) | x | x | x
5 | CCN(CC)CCNC(=O)Cn1nc(Cc2ccccc2)c2ccccc2c1=O | 0 | -18 | 7
6 | CCN(CC)CCNC(=O)Cc1nn(CC)c(=O)c2ccccc12 | -2 | -1 | -4
7 | CCOC(=O)C(C)c1nn(C)c(=O)c2ccccc12 (stereo not given) | -1 | -11 | -1
8 | O=C(C[C@@H]1C=C[C@@H](NS(=O)(=O)c2ccccc2)[C@@H](CO)O1)N1CCc2ccccc2C1 | -1 | -13 | x

# | Tn6 DDE FP | Yeast UUG start-2
1 | x | i
2 | x | x
3 | x | x
4 | x | -5
5 | -4 | x
6 | 5 | 6
7 | -3 | x
8 | x | x

Additional compounds follow:
# | molecule | PglD inh | Yeast UUG start-1 | DDE Tn7 FP inh
9 | Cc1cc(NC(=O)COC(=O)COc2ccc(C(=O)c3ccccc3)cc2)no1 | -6 | 184* | 5
10 | CNC[C@H]1OCCCC[C@@H](C)Oc2ccc(NC(=O)Nc3ccc(F)cc3)cc2C(=O)N([C@@H](C)CO)C[C@H]1C | -1 | -1 | x
11 | CN1C(=O)c2cc(NC(=O)c3ccc(C#N)cc3)ccc2OC[C@H]2O[C@@H](CC(=O)NCc3ccc4c(c3)OCO4)CC[C@@H]21 | 11 | x | x
12 | COc1ccc(S(=O)(=O)N[C@@H]2CC[C@@H](CC(=O)N3CCN(c4ccccc4)CC3)O[C@H]2CO)cc1 | 1 | 13 | x
13 | CN1CCN(CC#CC(C)(O)C2CC3C=CC2C3)CC1 (stereo not given) | 2 | 166* | -2
14 | OC(CCN1CCCCC1)(c1ccccc1)C1C[C@@H]2C=C[C@H]1C2 (stereo not given in full) | -1 | -15 | -6
15 | CCc1ccc(NC(=O)NCCN2CCCCC2)cc1 | 4 | 108* | 9
16 | CCc1ccc(N2CCN(CCNC(=O)Nc3ccccc3)CC2)cc1 | -3 | -4 | 4

# | Tn6 DDE FP | Yeast UUG start-2
9 | 6 | 6
10 | x | x
11 | x | x
12 | x | x
13 | -1 | 0
14 | 2 | x
15 | 0 | 2
16 | 0 | x

(cont.)
# | molecule | PglD inh | Yeast UUG start-1 | DDE Tn7 FP inh
17 | Cc1ccccc1NC(=O)/C(=C/c1ccccc1)c1ccccc1 | -3 | 102* | 1
18 | O=C(Nc1ccccc1)/C(=C/c1ccccc1)c1ccccc1 | 5 | -15 | -5
19 | Cc1nn(C)cc1NC(=O)C[C@@H]1CC[C@H]2[C@H](COc3ccc(NC(=O)NC(C)C)cc3C(=O)N2C)O1 | 0 | -11 | x
20 | C[C@@H]1CN([C@@H](C)CO)C(=O)c2cc(NC(=O)Cc3cn(C)c4ccccc34)ccc2O[C@H]1CN(C)Cc1ccncc1 | 4 | x | x
21 | CC(C)N1C(=O)[C@@]2(Cc3ccccc31)c1ccccc1C(=O)N(Cc1ccccc1Cl)[C@H]2c1ccc(CO)cc1 | 3 | 45 | x
22 | CN(C)CCCN1C(=O)[C@@]2(Cc3ccccc31)c1ccccc1C(=O)N(Cc1ccccc1C(F)(F)F)[C@H]2c1ccc(CO)cc1 | 0 | 173* | x
23 | COCCCN1C(=O)[C@@]2(Cc3ccccc31)c1ccccc1C(=O)N(Cc1ccccc1)[C@H]2c1ccc(CO)cc1 | -2 | 169* | x
24 | O=C(NCC1CC1)c1ccc(-n2ccnc2)c2ccoc12 | 1 | 163* | 0

# | Tn6 DDE FP | Yeast UUG start-2
17 | -4 | -1
18 | -4 | x
19 | x | x
20 | x | x
21 | x | x
22 | x | i
23 | x | i
24 | 8 | -7

The list goes on, starting with the last three of the part before.
# | molecule | PglD inh | Yeast UUG start-1 | DDE Tn7 FP inh
22 | CN(C)CCCN1C(=O)[C@@]2(Cc3ccccc31)c1ccccc1C(=O)N(Cc1ccccc1C(F)(F)F)[C@H]2c1ccc(CO)cc1 | 0 | 173* | x
23 | COCCCN1C(=O)[C@@]2(Cc3ccccc31)c1ccccc1C(=O)N(Cc1ccccc1)[C@H]2c1ccc(CO)cc1 | -2 | 169* | x
24 | O=C(NCC1CC1)c1ccc(-n2ccnc2)c2ccoc12 | 1 | 163* | 0
25 | CS(=O)(=O)Nc1cccc(NC(=O)c2ccc(-n3ccnc3)c3ccoc23)c1 | -3 | 115* | -1
26 | C[C@@H]1CN([C@@H](C)CO)C(=O)c2cc(NC(=O)Nc3ccccc3)ccc2O[C@@H](C)CCCCO[C@@H]1CN(C)C(=O)Cc1ccccc1 | 2 | -8 | x
27 | C[C@@H]1CN([C@@H](C)CO)C(=O)Cc2cc(NS(C)(=O)=O)ccc2O[C@H]1CN(C)Cc1ccncc1 | 4 | -15 | x
28 | CO[C@H]1CN(C)C(=O)c2cc(NC(=O)C3CCC3)ccc2OC[C@@H](C)N(C)C[C@H]1C | -1 | x | x
29 | COc1cc(C(=O)OCC(=O)c2cc(C)n(CC3CCCO3)c2C)cc(OC)c1C (stereo not given) | 5 | 107* | 3
30 | COc1cc(C)ccc1OCC(=O)OCC(=O)c1cc(C)n(CC2CCCO2)c1C (stereo not given) | 0 | 6 | -6

# | Tn6 DDE FP | Yeast UUG start-2
22 | x | i
23 | x | i
24 | 8 | -7
25 | 1 | -8
26 | x | x
27 | x | x
28 | x | x
29 | 2 | 6
30 | -3 | x
